Reference: ChEMBL document CHEMBL3421542, “Pure Diastereomers of a Tranylcypromine-Based LSD1 Inhibitor: Enzyme Selectivity and In-Cell Studies” (ACS Med Chem Lett, 2015)

Chains of the proteins cited; added tags and fusions are not shown.
UniProt P21397, whole entry: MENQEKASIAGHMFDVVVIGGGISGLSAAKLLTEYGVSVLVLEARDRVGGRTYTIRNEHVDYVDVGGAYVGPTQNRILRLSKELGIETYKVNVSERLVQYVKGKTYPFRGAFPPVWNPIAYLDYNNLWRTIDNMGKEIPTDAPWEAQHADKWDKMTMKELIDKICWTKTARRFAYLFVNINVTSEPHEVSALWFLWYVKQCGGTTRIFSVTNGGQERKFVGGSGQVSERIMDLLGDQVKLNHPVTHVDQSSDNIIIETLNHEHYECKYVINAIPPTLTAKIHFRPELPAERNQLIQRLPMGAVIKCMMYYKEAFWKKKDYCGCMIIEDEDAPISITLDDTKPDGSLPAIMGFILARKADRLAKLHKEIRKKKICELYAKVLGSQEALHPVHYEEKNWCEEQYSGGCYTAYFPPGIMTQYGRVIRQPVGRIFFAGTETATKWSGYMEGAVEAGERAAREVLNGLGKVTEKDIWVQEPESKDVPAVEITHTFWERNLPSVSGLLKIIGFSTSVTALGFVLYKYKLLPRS

target: Amine oxidase [flavin-containing] A (Homo sapiens, UniProt P21397); experiment: Inhibition of human recombinant MAOA expressed in Pichia pastoris incubated for 15 mins prior to substrate addition measured after 30 mins by luminescence assay

SMILES | IC50 [nM]
N[C@@H]1C[C@H]1c1ccc(NC(=O)[C@H](Cc2ccccc2)NC(=O)OCc2ccccc2)cc1 | 140
Cl.NC1CC1c1ccc(NC(=O)C(Cc2ccccc2)NC(=O)OCc2ccccc2)cc1 (mixture of isomers) | 320
N[C@H]1C[C@@H]1c1ccc(NC(=O)[C@@H](Cc2ccccc2)NC(=O)OCc2ccccc2)cc1 | 200
N[C@H]1C[C@@H]1c1ccc(NC(=O)[C@H](Cc2ccccc2)NC(=O)OCc2ccccc2)cc1 | 110
N[C@@H]1C[C@H]1c1ccc(NC(=O)[C@@H](Cc2ccccc2)NC(=O)OCc2ccccc2)cc1 | 220
